# Data: patent publication EP4825425A2, “IMPROVED DOSAGE REGIMEN FOR THE ADMINISTRATION OF INHALED NITRIC OXIDE (INO) IN THE TREATMENT OF HYPOXEMIA” (dated 2026)
# Key:
# PAH subjects = assay: 6-minute walk test (6MWT) with SpO2 measurement, protocol Pulse-PAH-201, pulsed iNO added to LTOT; conditions: for Improvement in SpO2 Nadir (5% or more) / Improvement in SpO2 Nadir (2% or more) / Improvement in SpO2 Nadir / Drop or no change in SpO2 Nadir: share of PAH subjects, during 6MWT; for Improvement in SpO2 Nadir (5% or more): placebo 10%; for Improvement in SpO2 Nadir (2% or more): placebo 22%; for Improvement in SpO2 Nadir: placebo 34%; for Drop or no change in SpO2 Nadir: placebo 66%
# Description: (§1) Patients suffering from pulmonary hypertension associated with idiopathic pulmonary fibrosis (PH-IPF), and patients diagnosed pulmonary arterial hypertension (PAH) as WHO Diagnostic Group 1 were tested in this study example. The patients included in this study were all on long term oxygen therapy (LTOT) and have been on LTOT for at least 3 months and for at least 10 hours per day. The results of this study, and the SpO2 measurements specifically, were derived from a clinical study measuring the effects of iNO on functional respiratory imaging parameters in certain patient populations.
# The PAH patients were tested according to the following procedure per protocol Pulse-PAH-201: A baseline measurement of SpO2 was taken within 24 hours of the start of the study. A 6-minute walk test (6MWT) was given, and SpO2 measurements were taken at baseline and at the end of the 6MWT. Following baseline measurements, the subjects were put on either 25 mcg/kgIBW/hr or 75 mcg/kgIBW/hr of iNO for 16 weeks, along with their LTOT they were already receiving. 6MWT and SpO2 measurements were taken at 4 weeks, 8 weeks, 12 weeks, and 16 weeks.
# PH-IPF patients = assay: 6-minute walk test (6MWT) with SpO2 measurement, protocol Pulses-COPD-006 Part 2, pulsed iNO added to LTOT; conditions: for 6MWD (meters), 4 Weeks / Distance Saturation Product [DSP] (meter%), 4 Weeks / Oxygen desaturation during 6MWT (% SpO2), 4 Weeks / Nadir SpO2 (% SpO2), 4 Weeks / 6MWD, Meters improvement at 4 weeks / Distance Saturation Product [DSP], Improvement at 4 weeks (meter%) / Nadir SpO2, Percent Improvement at 4 weeks / Oxygen desaturation during 6MWT, Percent Improvement at 4 weeks: one PH-IPF patient; for Distance Saturation Product [DSP] (meter%), 4 Weeks: 6MWD multiplied by nadir SpO2; for Nadir SpO2 (% SpO2), 4 Weeks: during 6MWT; for 6MWD, Meters improvement at 4 weeks / Distance Saturation Product [DSP], Improvement at 4 weeks (meter%) / Nadir SpO2, Percent Improvement at 4 weeks / Oxygen desaturation during 6MWT, Percent Improvement at 4 weeks: versus baseline
# Description: as §1
# PH-IPF patients were tested according to the following procedure per protocol Pulses-COPD-006 Part 2: A baseline measurement of SpO2 was taken within 24 hours of the start of the study. A 6-minute walk test (6MWT) was given, and SpO2 measurements were taken every minute during the 6MWT. Following baseline measurements, the subjects were put on either 30 mcg/kgIBW/hr or 75 mcg/kgIBW/hr of iNO for 4 weeks, along with their LTOT they were already receiving. 6MWT and SpO2 measurements were taken again at 2 weeks and 4 weeks, and iNO was then discontinued. The 6MWT and SpO2 measurements were taken again at 6 weeks after 2 weeks of only the LTOT.
# In addition, the level of oxygen desaturation during exercise improved for both subjects, representing an average improvement of 28.5%.
# The DSP is calculated by multiplying the distance (6MWD) by the nadir in the oxygen saturation during the 6MWT. […]
# [1] = average of 2 PH-IPF patients (one iNO75, one iNO30), 4 weeks versus baseline
compound,measurement,setting,value
[N]=O,improvement in SpO2 Nadir during the 6MWT after 16 weeks of treatment (in words),"PAH subjects; PAH subjects, iNO75 cohort (75mcg/kgIBW/hr)",All test subjects showed improvement
same,share of subjects showing improvement of 5% or more in SpO2 Nadir (in words),"PAH subjects; PAH subjects, iNO75 cohort (75mcg/kgIBW/hr), 16 weeks",half
same,Improvement in SpO2 Nadir (5% or more),"PAH subjects; iNO 25mcg/kgIBW/hr, 16 weeks",10%
same,Improvement in SpO2 Nadir (2% or more),"PAH subjects; iNO 25mcg/kgIBW/hr, 16 weeks",50%
same,Improvement in SpO2 Nadir,"PAH subjects; iNO 25mcg/kgIBW/hr, 16 weeks",60%
same,Drop or no change in SpO2 Nadir,"PAH subjects; iNO 25mcg/kgIBW/hr, 16 weeks",40%
same,Improvement in SpO2 Nadir (5% or more),"PAH subjects; iNO 75mcg/kgIBW/hr, 16 weeks",50%
same,Improvement in SpO2 Nadir (2% or more),"PAH subjects; iNO 75mcg/kgIBW/hr, 16 weeks",88%
same,Improvement in SpO2 Nadir,"PAH subjects; iNO 75mcg/kgIBW/hr, 16 weeks",100%
same,Drop or no change in SpO2 Nadir,"PAH subjects; iNO 75mcg/kgIBW/hr, 16 weeks",0%
same,average improvement in the SpO2 Nadir,PH-IPF patients; [1],5.5%
same,average improvement of the level of oxygen desaturation during exercise,PH-IPF patients; [1],28.5%
same,average DSP improvement,"PH-IPF patients; average of 2 PH-IPF patients (one iNO75, one iNO30), 4 weeks versus baseline with LTOT alone",78.1 m%
same,"6MWD (meters), 4 Weeks","PH-IPF patients; iNO 30mcg/kgIBW/hr, 12.8 hrs/day, baseline 510 m",560 m
same,"Distance Saturation Product [DSP] (meter%), 4 Weeks","PH-IPF patients; iNO 30mcg/kgIBW/hr, baseline 423.3 m%",498.4 m%
same,"Oxygen desaturation during 6MWT (% SpO2), 4 Weeks","PH-IPF patients; iNO 30mcg/kgIBW/hr, baseline 15%",11%
same,"Nadir SpO2 (% SpO2), 4 Weeks","PH-IPF patients; iNO 30mcg/kgIBW/hr, baseline 83%",89%
same,"6MWD, Meters improvement at 4 weeks",PH-IPF patients; iNO 30mcg/kgIBW/hr,50 m
same,"Distance Saturation Product [DSP], Improvement at 4 weeks (meter%)",PH-IPF patients; iNO 30mcg/kgIBW/hr,75.1 m%
same,"Nadir SpO2, Percent Improvement at 4 weeks",PH-IPF patients; iNO 30mcg/kgIBW/hr,7%
same,"Oxygen desaturation during 6MWT, Percent Improvement at 4 weeks",PH-IPF patients; iNO 30mcg/kgIBW/hr,27%
same,"6MWD (meters), 4 Weeks","PH-IPF patients; iNO 75 mcg/kgIBW/hr, 23.8 hrs/day, baseline 98 m",197 m
same,"Distance Saturation Product [DSP] (meter%), 4 Weeks","PH-IPF patients; iNO 75 mcg/kgIBW/hr, baseline 74.5 m%",155.6 m%
same,"Oxygen desaturation during 6MWT (% SpO2), 4 Weeks","PH-IPF patients; iNO 75 mcg/kgIBW/hr, baseline 23%",16%
same,"Nadir SpO2 (% SpO2), 4 Weeks","PH-IPF patients; iNO 75 mcg/kgIBW/hr, baseline 76%",79%
same,"6MWD, Meters improvement at 4 weeks",PH-IPF patients; iNO 75 mcg/kgIBW/hr,99 m
same,"Distance Saturation Product [DSP], Improvement at 4 weeks (meter%)",PH-IPF patients; iNO 75 mcg/kgIBW/hr,81.1 m%
same,"Nadir SpO2, Percent Improvement at 4 weeks",PH-IPF patients; iNO 75 mcg/kgIBW/hr,4%
same,"Oxygen desaturation during 6MWT, Percent Improvement at 4 weeks",PH-IPF patients; iNO 75 mcg/kgIBW/hr,30%
